According to ChEMBL document CHEMBL1137608, “Design of a potent reactivator of tabun-inhibited acetylcholinesterase--synthesis and evaluation of (E)-1-(4-carbamoylpyridinium)-4-(4-hydroxyiminomethylpyridinium)-but-2-ene dibromide (K203)” (2007):

System: Rattus norvegicus
Assay: Toxicity in intramuscular dosed rat after 24 hrs
Details: in vivo, im

O/N=C/c1cc[n+](C/C=C/C[n+]2ccc(/C=N/O)cc2)cc1.[Br-].[Br-] was tested, and the LD50 was 71.3 mg/kg.
O/N=C/c1cc[n+](CCCC[n+]2ccc(/C=N/O)cc2)cc1.[Br-].[Br-] gave an LD50 of 49 mg/kg.
